# Ab-14 light chain CDR variants: yeast mating affinities

Target peptide (SARS-CoV-2 spike, HR2 region): PDVDLGDISGINAS

Parent: Ab-14, a human scFv built as VH, three GGGGS repeats, VL. Only the CDRs of the light chain vary.
VH: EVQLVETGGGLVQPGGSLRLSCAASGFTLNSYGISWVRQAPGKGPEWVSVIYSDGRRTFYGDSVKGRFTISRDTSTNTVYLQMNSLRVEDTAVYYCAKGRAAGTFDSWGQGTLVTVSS
VL: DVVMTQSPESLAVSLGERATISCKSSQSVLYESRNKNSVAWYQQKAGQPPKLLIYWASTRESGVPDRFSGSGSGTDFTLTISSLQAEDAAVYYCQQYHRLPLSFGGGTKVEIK

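Phage display of a naive human antibody library on the peptide gave the parent. The library (AAYL50) carries one to three amino acid substitutions per variant, with no insertions or deletions. The assay is AlphaSeq: two haploid yeast populations carry antibody and antigen on their surface. Mating (16 h, 30 °C) was followed by selection of diploids and sequencing of their barcodes. A regression on co-assayed BCL2-family reference pairs converts the normalised counts of each replicate to an apparent Kd. Each pool was mated in three replicate cultures.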

Variants are written as CDR1, CDR2 and CDR3 of the light chain (limits as in the source). Parent: KSSQSVLYESRNKNSVA, WASTRES, QQYHRLPLS.
Affinities are written as log10 Kd with Kd in nM; a lower number is a better binder.
Averages over replicates are reported, and they cover detected replicates only.
An entry "nd" has no value in the source: the pair was not observed among the diploids in that replicate. This suggests poor binding but is not conclusive.
For reference, the parent read 0.65 as the reference entry and 1.68 as a member of this library.

CDR-L1 | CDR-L2 | CDR-L3 | replicates, log10 nM | mean, log10 nM | signal with controls
KSSQMLLYESRNKASVA | WASTRES | QQYHRLPLS | 0.69 / 0.95 / 0.78 | 0.81 | 1/9 (5.44)
KSYQSVLYESRNKNSRA | WASDRES | QQYHRLPLS | nd / 2.58 / nd | 2.58 | 1/9 (4.19)
KSSQSVLYESQNKNSVA | WASCRGS | QQYHRLPLS | 0.99 / 0.92 / 1.19 | 1.03 | 2/9 (3.64)
GASQSVLYESRNKWSVA | WASTRES | QQYHRLPLS | 1.59 / 1.83 / 1.47 | 1.63 | 1/9 (3.00)
KSSQSVLYESRNKNSVV | WSSTRES | QQYHRLPRS | nd / nd / nd | nd | 1/9 (3.41)
KSYQSVLYYSRNKNSVA | WAYTRES | QQYHRLPLS | nd / nd / nd | nd | 0/9
KSSQSVLYESRNKNSVA | WESTRES | RLYHRLPLS | nd / nd / nd | nd | 0/9
GSSQSVLYESRNKNSVA | WASARES | QQYKRLPLS | nd / nd / 4.14 | 4.14 | 0/9
GSSQSVCYESRNKNSVA | WAGTRES | QQYHRLPLS | 3.76 / nd / nd | 3.76 | 1/9 (3.73)
KSSRSVLYDSRNKNSVA | WASTRET | QQYHRLPLS | 0.74 / 0.81 / 1.01 | 0.85 | 0/9
KPSQSVLYESRFKNAVA | WASTRES | QQYHRLPLS | nd / 3.61 / nd | 3.61 | 1/9 (3.88)
KSSQSVLYESRNKASVA | WASTRFS | QQYHRLPLS | nd / nd / nd | nd | 4/9 (4.05)
CSSQSVLYESRNKNSVA | WASTCES | QQYHRLPLY | nd / nd / nd | nd | 1/9 (4.44)
KSSQSVLYESRNKNSVA | WASVRES | QQYHRDPLS | nd / nd / nd | nd | 0/9
KSSQSVLCESRNKNSVA | GAYTRES | QQYHRLPLS | -0.23 / 0.12 / -0.39 | -0.16 | 0/9
KSSVWVLYESRNKNSVA | WLSTRES | QQYHRLPLS | nd / nd / nd | nd | 3/9 (3.85)
KSSQSVLYESRNKNSVA | WGSYRES | QQYHRLPLE | 1.86 / 1.93 / 1.75 | 1.84 | 1/9 (3.97)
KSSQSVLYESRNKNSIA | WASTRED | QQYHRLPFS | 0.65 / 0.77 / 0.78 | 0.73 | 5/9 (3.75)
KSSQSVLYESRNKNSVA | WGSTRMS | QQYHRFPLS | 2.04 / 1.85 / 1.81 | 1.90 | 3/9 (4.18)
KSSQSVLYESRNKNSVA | WASTREM | QQFHRLPMS | 2.71 / nd / nd | 2.71 | 0/9
KSSQSVLYESRNKNSLA | WASTREN | QQWHRLPLS | nd / nd / nd | nd | 1/9 (3.68)
KSSQSVLYESINKNSVS | WASTRES | QWYHRLPLS | 4.96 / nd / nd | 4.96 | 1/9 (3.94)
KSSQSVLYESRNANSVA | WAKTRES | QQNHRLPLS | 4.45 / nd / nd | 4.45 | 0/9
KSSQVMLYESRNKNSVE | WASTRES | QQYHRLPLS | 6.51 / 3.70 / 4.39 | 4.87 | 5/9 (4.13)
KSSQSVLYQSRNKNSVA | WASTRED | QQYHRLPLS | 1.00 / 1.24 / 1.09 | 1.11 | 0/9
KSSQSVLYESRNKNSVA | SASTRES | QQYDILPLS | 0.45 / 0.71 / 0.71 | 0.62 | 1/9 (4.26)
KSSQIVLYEKRNKNSVA | WASTRES | QQYHRLPSS | nd / nd / nd | nd | 0/9
KSSQSVLYESRNKNSVN | WASTREY | QQYHRLPLR | nd / 2.99 / nd | 2.99 | 3/9 (4.38)
KISQSVLYESRNKNSVA | WASTRES | QQYHRLPQR | nd / nd / nd | nd | 0/9
KSSWSVLYESRNKNSVA | WASSRES | QQYHRLPLS | nd / nd / nd | nd | 1/9 (3.78)
KSSQSVDYESRNKHSVA | WASTRES | QQYHRLPDS | nd / nd / nd | nd | 4/9 (4.36)
KSSQSVLYMSRNKNSVD | WAVTRES | QQYHRLPLS | nd / nd / nd | nd | 0/9
PSSQSVEYESRNKNSVA | WASTRRS | QQYHRLPLS | nd / nd / nd | nd | 0/9
KSQQSVLYESRHKCSVA | WASTRES | QQYHRLPLS | 2.22 / 2.48 / 2.64 | 2.44 | 2/9 (4.32)
KSSQTVLYESRNQNSVA | WASTRES | QPYHRLPLS | nd / 3.99 / nd | 3.99 | 3/9 (5.22)
TSSQSVLYESRNKNSMA | WASTRES | QQWHRLPLS | nd / 3.07 / nd | 3.07 | 4/9 (4.72)
KSQQSVLYESRNKNSVA | WAFTRES | QQYHCLPLS | 4.46 / nd / nd | 4.46 | 1/9 (2.30)
KSAQMVLYESRNKNSVA | WASTRES | QQCHRLPLS | nd / nd / nd | nd | 0/9

Repeated from above, the 4 best binders with a signal in all replicates:

CDR-L1 | CDR-L2 | CDR-L3 | replicates, log10 nM | mean, log10 nM | signal with controls
KSSQSVLCESRNKNSVA | GAYTRES | QQYHRLPLS | -0.23 / 0.12 / -0.39 | -0.16 | 0/9
KSSQSVLYESRNKNSVA | SASTRES | QQYDILPLS | 0.45 / 0.71 / 0.71 | 0.62 | 1/9 (4.26)
KSSQSVLYESRNKNSIA | WASTRED | QQYHRLPFS | 0.65 / 0.77 / 0.78 | 0.73 | 5/9 (3.75)
KSSQMLLYESRNKASVA | WASTRES | QQYHRLPLS | 0.69 / 0.95 / 0.78 | 0.81 | 1/9 (5.44)

Empty control strains, which show no peptide, gave a signal in 18% of pairings with library AAYL50; the median was 4.19 and 95% of these signals were weaker than 2.99. No background was subtracted. The control count says in how many pairings with the empty strains this scFv gave a signal, with their mean in brackets.

Source: Engelhart et al. 2022 (doi:10.1038/s41597-022-01779-4), MIT Lincoln Laboratory and A-Alpha Bio; data file from the FLAb repository.